## Apparent affinities of Ab-14 variants for a coronavirus HR2 peptide

Target peptide (SARS-CoV-2 spike, HR2 region): PDVDLGDISGINAS

Parent scFv Ab-14: VH joined to VL by a 15-residue (Gly4Ser)3 linker. Changes lie in the light chain CDRs alone.
VH: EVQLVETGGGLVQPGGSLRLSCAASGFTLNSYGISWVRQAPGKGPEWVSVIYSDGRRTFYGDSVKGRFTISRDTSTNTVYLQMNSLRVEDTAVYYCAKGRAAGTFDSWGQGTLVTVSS
VL: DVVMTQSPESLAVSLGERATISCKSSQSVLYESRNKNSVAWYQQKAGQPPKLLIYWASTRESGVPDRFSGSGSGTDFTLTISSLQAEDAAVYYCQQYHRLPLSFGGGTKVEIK

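The starting antibody came from a phage panning campaign against this peptide. These sequences belong to a second round, designed from the earlier measurements on random variants of the parent. Group labels follow the data file (Ctrl: baseline library sampled from a position-specific scoring matrix, with some repeated check sequences; En: ensemble of fine-tuned language models; GP: Gaussian process model; HC: hill climbing; Gen: genetic algorithm; Gibbs: Gibbs sampling; a sequence that several methods proposed may carry one label only). The scFvs were displayed on barcoded MATa yeast, the peptide on MATalpha yeast. After mating in shaken culture at 30 °C for 16 h, diploids were selected and their barcode pairs sequenced. A regression on co-assayed BCL2-family reference pairs converts the normalised counts of each replicate to an apparent Kd. There are six technical replicates.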

The parent's light chain CDRs are KSSQSVLYESRNKNSVA, WASTRES, QQYHRLPLS; each variant's own CDRs replace them letter for letter.
Variants here have more than six changes.
The Kd shown is the geometric mean over detected replicates; a lower Kd is a better binder.
A pair that was not seen in any replicate is written "no signal"; this usually means weak binding, but a binder can also be missed.
Entries are sorted by rising average, undetected variants last.
Of ten entries with the parent sequence, four were seen in most replicates (averages 2.2 nM to 240 nM), three in one and three in none, so single entries are noisy.

CDR-L1,CDR-L2,CDR-L3,group,apparent Kd,replicates with signal
KLDQSVMLWSRNKNSVA,QASTRMS,QDYHRLPLS,GP_Gibbs,540 pM,6/6
KMSQEAMMLSRNPNSVA,QASTREQ,QQYHRLPLS,GP_Gibbs,550 pM,6/6
KLQQSVLQLWRNDNSVA,QASHRES,QQYHRLPLS,GP_Gibbs,670 pM,6/6
KLQWYNTEASYSARNIA,DGAQRLN,QQYMRLPLM,En_Gibbs,730 pM,6/6
KVSPSMWYESRNKNNVA,HASTRES,QQYHRLPLQ,GP_Gibbs,820 pM,6/6
KSQQSWEYESRNSNSVA,QASTRMV,QQYHRLPLI,GP_Gibbs,820 pM,6/6
TLAQGIYEGVRKSNNVA,EASHVTD,QQYERLPLE,En_Gibbs,850 pM,6/6
KIFQSVLYEDRQKNSVA,NASDRMS,QQYHRLPLS,GP_Gibbs,950 pM,6/6
KLSQMYEYESRWKNSVA,NASTREL,QQYHRLPLS,GP_Gibbs,1.0 nM,6/6
KISQQYLGESRNMNSVA,NASTREA,QQYHRLPLS,GP_Gibbs,1.1 nM,6/6
KQQQSELGLSRNMNSVA,HASTRES,QQYHRLPLS,GP_Gibbs,1.2 nM,6/6
KISMLQRYESQNKNNIA,EMSRREN,QQYHRLPLS,En_HC,1.3 nM,6/6
ALGDVTRMESNKKSSIA,DMSNRAD,QQYHRLPLS,En_HC,1.3 nM,6/6
KLSQSNLYEDRNLNNVA,NASQRES,QVYHRLPLM,GP_Gibbs,1.5 nM,6/6
KLYQNVGTASHNKQSIA,DMERRED,QQYHRLPLS,En_HC,1.9 nM,6/6
TLTQSVGMESHSKNSVA,DLSTRGS,QQYHRLPLS,En_HC,2.0 nM,6/6
KSSWSVEYEDRASNSVA,NASQRLW,QQYHRLPLS,GP_Gibbs,2.1 nM,6/6
TISTSALYESINKNNVA,ELSTRGS,QQYERLPLS,En_HC,2.2 nM,6/6
KISQLVNFLGKQKNSVA,QMSTREE,QQYDRLPLS,En_HC,2.6 nM,6/6
KLSPSWLGEMRNDNSVA,NASTRLS,QQYHRLPLS,GP_Gibbs,2.7 nM,6/6
MGLESYQQGVHEMNNIA,NGDQKLD,QQYYRLPLL,En_Gibbs,2.8 nM,6/6
TISTSALYESTNKNSVA,ELSTRGQ,QQYERLPLS,En_HC,2.9 nM,6/6
KISQMVTYESTWHSAIA,QTSEREE,QQYHRLPLS,En_HC,2.9 nM,6/6
KIGQQVTYESTTKNAIA,QMTTREE,QQYHRLPLS,En_HC,3.0 nM,6/6
KISQMVTYESTWHNAIA,QTSEREE,QQYHHLPLS,En_HC,3.0 nM,6/6
KLYFNVGTLSHDKQSIA,DMERRED,QQYHRLPLS,En_HC,3.1 nM,6/6
NIQDNLGGLLSQINSVA,STEEKSD,QSYHRLPLS,En_Gibbs,3.2 nM,6/6
KFQQMVMQGDRNKNSVA,QASTRLQ,QQYHRLPLS,GP_Gibbs,3.2 nM,6/6
HFSGGMNQGSSAEHNIA,EGTYAEE,QQYARLPLQ,En_Gibbs,3.3 nM,6/6
RLSNQETEQIQHANSIA,DRDEVDV,QQYAHLPLS,En_Gibbs,3.4 nM,6/6
IISQSVMFQQTLINSVA,NAQTREE,QQYHRLPLS,En_HC,4.4 nM,6/6
YMSDLSQETSADANHIA,DGEARDV,QQYARLPLI,En_Gibbs,4.5 nM,6/6
ISSQGTLYESNVKNSVA,EASTREM,QQYHRLPLS,Ctrl,4.9 nM,6/6
HMSQVTMYGMWLKNSVA,QTSTREE,QQYDRLPLS,En_HC,5.0 nM,6/6
ILSQSVLMGSHLKNSVA,QASTRFQ,QQYHRLPLS,En_HC,5.1 nM,6/6
RVQLNSGHIDMHWYSIA,SASIRAD,QQYERLPLA,En_Gibbs,5.2 nM,6/6
ALRGVGYDEQVKHYAIA,DGEHLNN,QQYSMLPLS,En_Gibbs,5.4 nM,6/6
HIQDAEGGLSSQWNSVA,STEERSD,QSYHRLPLS,En_Gibbs,6.5 nM,6/6
MISDLMMYGSRNKNPIA,NASTREY,QQYHRLPLE,En_HC,7.2 nM,6/6
TLYGLSMSMSKNTNNVA,EMTTRED,QQYDRLPLI,En_Gen,7.6 nM,6/6
KFKELFNMWARAHGNVA,DATERNV,QQYSRLPIS,En_Gibbs,9.2 nM,6/6
IISQVDAYESRTKNSIA,DQSTRGS,QQYDRLPLS,En_HC,9.3 nM,6/6
SIYDMTGMESRNKNPIA,DVSTRPS,QQYDRLPLS,En_HC,9.8 nM,6/6
KLLDWEYGTTAMNSSIA,DAALESD,QQYDRLPLT,En_Gibbs,11 nM,6/6
KISGYLNKESKNANSVA,EMVNRES,QQYDRLPLS,En_HC,11 nM,6/6
MISQLANMGTFAINSVA,QASLRNE,QQYDRLPLM,En_Gen,15 nM,1/6
TISNSAQMESHNKNSVA,DLNVRGS,QQYDRLPLS,En_HC,16 nM,6/6
TISGVMQQMSHSKSNVA,EVSMRLD,QQYVRLPLA,En_Gen,18 nM,6/6
MVYQAAMMGMSTRNSIA,NAQMRPD,QQYHRLPLI,En_Gen,22 nM,6/6
NVGQLMDGVSRNKNSVA,HQSTRED,QHYHRLPLS,En_HC,25 nM,6/6
MIGDTGLHDSRMQNSVA,NNSTREA,QQYHRLPLS,En_HC,26 nM,6/6
KISQMVKVGATHSNSIA,EEVTRAK,QQYHRLPLA,En_Gen,32 nM,6/6
HVMHEQLDYKNRENNIA,HESMRLH,QQYSQLPIT,En_Gibbs,33 nM,6/6
TIGQTLMSGVMNRSNVA,EVSERLN,QQYDRLPLL,En_Gen,35 nM,6/6
KWSWSWLLESRWKNSVA,NASLRES,QQYHRLPLS,GP_Gibbs,47 nM,5/6
ILSDTAVNQYDEADNIA,DKTETSV,QQYARLPLS,En_Gibbs,52 nM,6/6
KQQFSGGGGSRNKNSVA,KASTRES,QQYHRLPLS,GP_Gibbs,58 nM,6/6
TFDQMGEHKGMNTNSVA,AGNLVRI,QQYSRLPFS,En_Gibbs,58 nM,6/6
KIGHGLTTEMYNRNSVA,QTETRVS,QHYHRLPLS,En_HC,81 nM,6/6
KVSSFMRGLMMRTDSIA,DNETRHS,QQYDRLPLS,En_Gen,82 nM,2/6
KIRVHNLMFYQNESSIA,GQSNRSE,QQYYHLPLT,En_Gibbs,82 nM,4/6
IVSQLMLWGMHAKNSIA,EAETRIN,QQYHRLPLI,En_Gen,92 nM,1/6
TISQTMLMENQFKNSVA,QASTRES,QCYDRLPLS,En_HC,99 nM,4/6
KLLDYEYGTWAMNSAIA,NAALESD,QQYDRLPLT,En_Gibbs,110 nM,1/6
TISNMFMMENQFKNSVA,QASTRES,QCYDRLPLS,En_HC,110 nM,5/6
KIAFNSLIESKNLNSVA,EMTTREY,QDYDRLPLS,En_HC,130 nM,6/6
RLWQQMYGFNIHANAIA,EGKERYW,QQYARLPLS,En_Gibbs,140 nM,4/6
ILSESVLTLSRNINSVA,DNSTRES,QQYDRLPLS,En_HC,660 nM,5/6
KLSQWYWYESRNKNSVA,MASTREV,QQYWRLPLS,GP_Gibbs,no signal,0/6
MIAQGLRGVGRNKNSVA,NAQTRMS,QHYHRLPLS,En_HC,no signal,0/6
QLSMITGHVSMSKNNVA,EMETRVN,QQYDRLPLS,En_Gen,no signal,0/6
NLTDAMASWTGDRHSIA,DKTVTAP,QQYSRLPIT,En_Gibbs,no signal,0/6

The last 4 entries again:

| CDR-L1 | CDR-L2 | CDR-L3 | group | apparent Kd | replicates with signal |
|---|---|---|---|---|---|
| KLSQWYWYESRNKNSVA | MASTREV | QQYWRLPLS | GP_Gibbs | no signal | 0/6 |
| MIAQGLRGVGRNKNSVA | NAQTRMS | QHYHRLPLS | En_HC | no signal | 0/6 |
| QLSMITGHVSMSKNNVA | EMETRVN | QQYDRLPLS | En_Gen | no signal | 0/6 |
| NLTDAMASWTGDRHSIA | DKTVTAP | QQYSRLPIT | En_Gibbs | no signal | 0/6 |

The authors averaged sequences with at least three values out of six and counted those with two or fewer as poor binders.
Three control strains display no target. For all light chain designs, 4% of the pairings with them gave a signal, with a median of 430 nM and one signal in twenty below 38 nM, so weak values seen in few replicates may be background.
The range of this assay differs from that of the first round, and the authors advise against merging the two.

Values reported by Li et al. 2023, doi:10.1038/s41467-023-39022-2 (FLAb copy).